Compounds with a hit are over-represented: about 0.11% of the library has one in this group of screens.
Eya2 inh = Eya2 (human) phosphatase inhibition; O00167; recombinant Eya2, OMFP fluorescence dephosphorylation (OMFP is methylfluorescein phosphate); Potency, µM (titrated, usually from 76.9 µM), most hits filed as inhibitors; 0.006% of 330,000 active; AID 488837; active = well fitted inhibition curve with a large enough effect; inconclusive = small, poorly fitted or top-dose-only effect, or effect the other way
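Eya2 (0.2 uM) preincubated 10 min at ambient with compound, then OMFP substrate added at 50 uM; 10 min reaction in 50 mM HEPES pH 7.5, 50 mM NaCl, 5 uM MgCl2, 0.05% BSA, 1 mM DTT. Fluorescence read at Ex 485/Em 525 nm.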
Rango complex inh = Rango-importin beta binding inhibition. Q14974. Rango CFP/YFP FRET sensor + importin beta, 45 min. Potency, µM (doses to about 92.2 µM). 0.031% of 340,000 active; note: nearly all actives have a fitted effect of over 15% in size
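FRET biosensor (snurportin 1 IBB flanked by EYFP and cerulean), 50 nM, with compound 5 min, then 0.125 microM importin beta in PBS, 1 mM DTT, 0.02% Tween-20, 0.1% BSA. CFP/YFP ratio read after 45 min at room temperature; pre-read flags interference.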
USP2a block = USP2a (human) protease inhibition. 0.01% of 330,000 active. USP2 core, Ub-CHOP2 coupled fluorogenic reporter, 485/531. Potency, µM (top dose mostly 38.3 µM), actives largely listed as inhibitors. AID 463254. O75604; active = well fitted inhibition curve with a large enough effect; inconclusive = small, poorly fitted or top-dose-only effect, or effect the other way
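Cell-free coupled assay: 10nM USP2 core preincubated 30min RT with compound in Tris-HCl pH 8.0/CaCl2/CHAPS buffer, then 25nM Ub-CHOP2 and 25nM reporter substrate; fluorescence (Ex 485/Em 531) read after 60min RT, normalized to NEM inhibition, concentration-response curves fitted.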
Rango release inh = inhibitors of RanGTP-induced Rango-importin beta complex dissociation. O95149+P62826. Biochemical FRET Rango-importin beta, RanGTP-induced dissociation. Potency, µM (titrated, usually from 46.1 µM). 0.071% of 340,000 active; note: nearly all actives have a fitted effect of over 45% in size
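Recombinant Rango FRET biosensor (EYFP–snurportin 1 IBB–cerulean CFP10) at 0.1 uM premixed with 0.25 uM importin beta in PBS, 1 mM DTT, 0.02% Tween-20, 0.1% BSA. Compound added 5 min; RanGTP-RCC1 (0.6 uM Ran, 2 mM GTP, 0.2 uM RCC1) then triggers release, read at 45 min.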
Of the large screens only hits and unclear results are named; the others gave an inactive call; [ ] = remark or other dose. Unless noted, calls come from the whole dose curve.

C#CCOCCOCCOCCNc1nc(N2CCN(C(=O)[C@H](CCCN=C(N)N)n3cc(C(N)[C@@H](C)CC)nn3)CC2)nc(N2CCN(C(=O)[C@H](CCCCN)n3cc([C@@H](N)[C@H](C)CC)nn3)CC2)n1 (some centres not stated)	Rango complex inh 58µM
C#CCOCCOCCOCCNc1nc(N2CCN(C(=O)CCCCCCCCCCNC(=O)[C@H]([C@@H](C)CC)n3cc(CCCCCN)nn3)CC2)nc(N2CCN(C(=O)CCCCCCCCCCNC(=O)[C@@H]([C@H](C)CC)n3cc(CCCCCN)nn3)CC2)n1	Eya2 inh 28µM, USP2a block 5µM (no result: Rango complex inh, Rango release inh)
C#CCOCCOCCOCCNc1nc(N2CCN(C(=O)CCCCCCCCCCNC(=O)[C@H]([C@@H](C)CC)n3cc(CCCCCN)nn3)CC2)nc(N2CCN(C(=O)CCCCCCCCCCNC(=O)[C@H]([C@@H](C)CC)n3cc(CCCCN=C(N)N)nn3)CC2)n1	USP2a block inconclusive (no result: Rango complex inh, Rango release inh)
C#CCOCCOCCOCCNc1nc(N2CCN(C(=O)CCCCCCCCCCNC(=O)[C@@H](CCC(=O)O)n3cc(CCCCCN)nn3)CC2)nc(N2CCN(C(=O)CCCCCCCCCCNC(=O)[C@H]([C@@H](C)CC)n3cc(CCCCCN)nn3)CC2)n1	Eya2 inh inconclusive, USP2a block inconclusive
c1coc(-c2ccc3ncnc(NCc4cccs4)c3c2)c1	none (no result: Rango complex inh, Rango release inh)
COc1ccc([C@]23Cc4cc(OC)c(OC)cc4C(O2)c2c(cc(-c4ccccc4)oc2=O)O3)cc1	none (no result: Rango complex inh, Rango release inh)
CC1(C)c2[nH]c3ccccc3c2C[C@@H]2C(=O)N(Cc3ccccc3Cl)C(=O)N21	Rango complex inh inconclusive, Rango release inh 12µM (no result: Eya2 inh, USP2a block)
NC(=S)NN=C1c2ccccc2-c2c(F)c(F)c(F)c(F)c21	Rango complex inh 73µM (no result: Eya2 inh, USP2a block)
N#Cc1cccc2c1-c1ccccc1/C2=N/NC(N)=S	none
Cc1ccc(/C=N\NC(=O)CNC(=O)C23CC4CC(CC(C4)C2)C3)o1	none
CC(=O)N[C@@H](Cc1ccc(O)cc1)C(=O)N[C@H](C(=O)N[C@@H](C)C(=O)N[C@H](C#N)CC(=O)O)C(C)C	none (no result: Rango complex inh, Rango release inh)
Clc1ccc(C2=NN(c3ccccc3)C(c3ccco3)C2)cc1 (configuration not stated)	Rango complex inh inconclusive, Rango release inh inconclusive
Cc1nn2c(c1-c1ccc(Cl)cc1)N=C(c1ccco1)CC2c1ccccc1 (configuration not stated)	Rango complex inh 58µM
Cc1nn(CC(=O)N(C)c2c(N)n(Cc3ccccc3)c(=O)[nH]c2=O)c(C)c1[N+](=O)[O-]	none
COc1ccc(CC(=O)NNc2ncnc3c2cnn3-c2ccc(C)cc2)cc1	Rango release inh 15µM
CCCCCNc1nc2sc3c(c2c(=O)n1-c1cccc(Cl)c1)CCN(C)C3	Rango complex inh inconclusive, Rango release inh 16µM
NC(=S)c1cc2cc(Cl)ccc2oc1=O	Rango complex inh 26µM
CCc1ccc(/C=C2\Oc3cc(OS(C)(=O)=O)ccc3C2=O)cc1	Rango complex inh inconclusive, Rango release inh 8.2µM
CCOc1cc(/C=C2\SC(=NC)N(C)C2=O)c(Br)cc1OC(C)=O	Rango complex inh inconclusive, Rango release inh inconclusive
CCOc1cc(/C=C2\SC(=NC)N(C)C2=O)cc(Cl)c1OC(C)=O	Rango complex inh inconclusive, Rango release inh 4.6µM[inhibitor]
CN=c1scc(-c2ccccc2F)n1/N=C/c1ccc(O)c(O)c1O	USP2a block 13µM
CC(=O)c1sc2ccccc2c1OC(=O)c1ccco1	Rango complex inh inconclusive, Rango release inh 26µM
CC(=O)c1c(OC(=O)c2ccco2)c2ccccc2n1C	Rango release inh inconclusive
COc1ccc(NC(=O)C2=NN(c3ccccc3)C(=O)CC2)cn1	Rango complex inh 52µM
Cc1cccc(CN2C(=O)N/C(=C/c3ccc(C)s3)C2=O)c1	Rango complex inh inconclusive, Rango release inh inconclusive
Cc1cccc(CN2C(=O)N/C(=C/c3cc(C)n(-c4cc(C)ccn4)c3C)C2=O)c1	Rango complex inh inconclusive, Rango release inh 13µM[inhibitor]
C=C1C[C@@]23CC[C@H]4[C@@](C)(CCC[C@@]4(C)C(=O)OC4OC(CO)C(O)C(O)C4O)[C@@H]2CC[C@]1(OC1OC(CO)C(O)C(O)C1OC1OC(CO)C(O)C(O)C1O)C3 (some centres not stated)	none (no result: Rango complex inh, USP2a block, Rango release inh)
Cc1cc(N=Cc2c(O)n(-c3ccc(C)c(C)c3)c(=O)c3ccccc23)no1	none (no result: Rango complex inh, Rango release inh)
Cc1ccc(-n2c(O)c(C=Nc3cc(C)on3)c3ccccc3c2=O)c(C)c1	Rango complex inh inconclusive, Rango release inh 9.2µM
N#Cc1ccc(-c2ccccc2)nc1SCC(=O)c1cc2ccccc2oc1=O	Rango complex inh inconclusive, Rango release inh 16µM
CC(C)c1c(C#N)c(N)nc(SCC(=O)c2cc3ccccc3oc2=O)c1C#N	Rango complex inh inconclusive
CCOc1ccc(-n2nc3ccc(N)cc3n2)cc1	Rango complex inh inconclusive, Rango release inh 5.2µM
COc1cccc(C2C(C#N)=C(N)OC(C(C)(C)C)=C2C#N)c1 (configuration not stated)	none
COc1cccc(/C=C2/CN(C)CC3=C2OC(N)=C(C#N)C3c2cccc(OC)c2)c1 (configuration not stated)	Rango complex inh inconclusive, Rango release inh 21µM
COCCN1C(=S)N[C@@H](c2ccccc2)C(C(=O)OC)=C1C	none (no result: Rango complex inh, Rango release inh)
COc1cc(/C=C(/C#N)C(=O)NCc2ccccc2)cc(OC)c1OC	none
Cc1cc(/C=C(\C#N)C(=O)NCc2ccccc2)cc(C)c1O	Rango complex inh inconclusive, Rango release inh 6.5µM
CCOCCCNC(=O)/C(C#N)=C/c1cc(C)c(O)c(C)c1	Rango complex inh inconclusive, Rango release inh 26µM
COc1ccccc1C1NC(=O)c2ccccc2O1 (configuration not stated)	none
OCC1O[C@H]([S-])[C@H](O)[C@@H](O)[C@@H]1O.[Au+] (some centres not stated)	none (no result: Rango complex inh, USP2a block, Rango release inh)
COc1ccc(C(=O)O)cc1S(=O)(=O)Nc1ccccc1C(=O)NCc1ccc2c(c1)OCO2	none
COc1ccc(Br)cc1/C=N/n1c(C)nc2ccccc2c1=O	none
Cc1nc2ccccc2c(=O)n1/N=C/c1cc(Br)ccc1O	Rango complex inh inconclusive, Rango release inh 10µM
Cc1cccc(Cc2nnc(CCC(=O)N(C)CCc3ccccc3)o2)c1	Rango complex inh 21µM
COc1ccc(NC(=O)CCCc2ccccc2)c(OC)c1	Rango release inh 16µM
CCCC[C@H]1COCCS(=O)(=O)N1Cc1ccc(Br)cc1	none
COc1ccccc1C1CC(c2ccco2)=NN1c1ccccc1 (configuration not stated)	Rango complex inh inconclusive, Rango release inh 16µM
Fc1ccc(C2=NN(c3ccccc3)C(c3ccco3)C2)cc1 (configuration not stated)	Rango complex inh inconclusive
COc1ccc([C@]23Cc4cc(C#N)ccc4C(O2)C2=C(CC4(CCCCC4)OC2=O)O3)cc1	none (no result: Rango complex inh, Rango release inh)
CC(=O)Nc1ccc(S(=O)(=O)NCc2ccc3c(c2)cc(C)n3C)cc1	Rango complex inh inconclusive, Rango release inh 23µM
Cc1cc2cc(CNS(=O)(=O)c3ccc4ccccc4c3)ccc2n1C	none

High-throughput results: PubChem BioAssay, National Center for Advancing Translational Sciences (NCATS)
